# Assay results from patent US6399654B1, “Biflavanoids and derivatives thereof as antiviral agents” (priority 1995, dated 2002).
# Conditions: mouse, in vivo, ip, 75 mg/kg/day
smiles,measurement,setting,value
"NC(=O)c1ncn([C@@H]2O[C@H](CO)[C@@H](O)[C@H]2O)n1 [Ribavirin, ribavirin, reference compound]",Toxicity Controls Surv/Total,"female, BALB/c",3/3
same,Toxicity Controls Mean Weight Change,,-0.5 g
